Compound activity (PubChem)
RAD54 branch – blocks human RAD54 Holliday junction branch migration | FAM/BHQ fluorescence | inhibition, % at 10.4 µM | Q92698 | 360,000 tested, 0.14% active;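 active = mean normalized replicate activity at least 40 and at least half of replicates scoring 40 or more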;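 note: inhibitors cause a drop in the FAM fluorescence signal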
RAD52 inh – RAD52 (human) annealing inhibition; recombinant RAD52 DNA annealing, FRET fluorescence; inhibition, % at 18.7 µM; 360,000 tested, 0.46% active; AID 651710;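 active = every replicate showing at least 50% inhibition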
GSIS activator – primary screen for activators of insulin secretion dependent on glucose, INS-1E cells, GLuc reporter luminescence | INS-1E GLuc reporter insulin secretion, 2-3 h | activation, % at 16.6 µM | 370,000 tested, 0.61% active | AID 743287;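 active = lowest replicate activation of at least 40%, so every replicate reaches that level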
CASP6 VEID inh – blocks human caspase-6 cleavage activity; P55212; inhibition, % at 12.5 µM; purified caspase-6, Z-VEID-R110 cleavage fluorescence; 350,000 tested, 0.53% active;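 active = mean inhibition across replicates at least about 35%, with every replicate also reaching that limit, limit read from the data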
Yeast UUG start – yeast start codon fidelity modulation | S. cerevisiae UUG-firefly luciferase reporter, luminescence/redox ratio | activity score, % at 18.7 µM | 350,000 tested, 0.13% active;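 active = replicate mean at a twofold rise or more, about +100% in these data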;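 also: firefly luciferase made from a UUG start codon reports start codon fidelity; reporter light over untreated wells divided by growth signal over untreated wells; some hits fall short of that in this replicate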
PglD DTNB – inhibitors of Campylobacter jejuni PglD acetyltransferase. purified PglD enzyme, DTNB colorimetric CoA detection. 360,000 tested, 0.098% active. inhibition, % at 12.5 µM; in the data active = inhibition above about 16%, passing the limit was not always enough
PglD inh SP – confirmation of Campylobacter jejuni PglD acetyltransferase inhibitors. Purified C. jejuni PglD, DTNB absorbance 412 nm. 320 tested, under 10 active. shares compounds with PglD DTNB. inhibition, % at 20 µM. AID 743156;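 active = mean inhibition across replicates of at least 20% with every single replicate also at 20% or more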;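 note: initial rate of CoA release by acetyl transfer from AcCoA to the UDP-4-amino sugar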
Numbers stand for hits. Shown are actives, neighbours in structure and some others; about 1.5% of the full set was active somewhere.

`O=C(CSc1nnc(-c2ccncc2)n1Cc1ccccc1)Nc1nccs1` gave RAD54 branch inactive, Yeast UUG start inactive, PglD DTNB 48 and PglD inh SP inactive.
Screening CCOC(=O)CNC(=S)N(Cc1ccccc1)Cc1cccnc1 returned RAD54 branch inactive, RAD52 inh inactive, CASP6 VEID inh inactive, Yeast UUG start inactive, PglD DTNB 32 and PglD inh SP inactive.
Screening Cc1cc(N2CCOCC2)nc2ccc(NC(=O)CCC(=O)N3CCC(C)CC3)cc12 returned RAD54 branch inactive, Yeast UUG start inactive and PglD DTNB inactive.
Screening Cc1cc(N2CCOCC2)nc2ccc(NC(=O)CCC(=O)N3CCCCC3)cc12 returned RAD54 branch inactive, Yeast UUG start inactive, PglD DTNB 24 and PglD inh SP inactive.
For CCN1CCN(C(=O)Cn2ncc3ccsc3c2=O)CC1 the results were RAD54 branch inactive, RAD52 inh inactive, GSIS activator inactive, CASP6 VEID inh inactive, Yeast UUG start inactive and PglD DTNB inactive.
Screening CCOC(=O)c1[nH]c(C)c(C(=O)OCC(=O)N2CCCCC2C)c1C (configuration not stated) returned RAD54 branch inactive, GSIS activator inactive, Yeast UUG start inactive, PglD DTNB 23 and PglD inh SP inactive.
For COc1ccccc1CNC(=O)c1cc2ccccc2oc1=O the results were RAD54 branch inactive, RAD52 inh inactive, GSIS activator inactive, CASP6 VEID inh inactive, Yeast UUG start inactive, PglD DTNB 32 and PglD inh SP inactive.
CCCCn1c(SCC(=O)N2CCCCC2)nc2cc(S(N)(=O)=O)ccc21 was read as RAD54 branch inactive, GSIS activator inactive, Yeast UUG start inactive, PglD DTNB 45 and PglD inh SP inactive.
Screening CC(=O)C1=C(O)C(=O)N(c2cccc(C(=O)O)c2)C1c1ccc(F)cc1 (configuration not stated) returned RAD54 branch inactive, RAD52 inh inactive, GSIS activator inactive, CASP6 VEID inh inactive, Yeast UUG start inactive, PglD DTNB 21 and PglD inh SP inactive.
For CC(=O)C1=C(O)C(=O)N(c2ccc(F)cc2)C1c1ccc(C)cc1 (configuration not stated) the results were RAD54 branch inactive, RAD52 inh inactive, GSIS activator inactive, CASP6 VEID inh inactive, Yeast UUG start inactive and PglD DTNB inactive.
COc1ccc(C(C(=O)NCc2ccccc2)N(C(=O)c2snc(C(N)=O)c2N)c2ccccc2OC)cc1 (configuration not stated) was read as RAD54 branch inactive, RAD52 inh inactive, GSIS activator inactive, CASP6 VEID inh inactive, Yeast UUG start inactive and PglD DTNB inactive.
`CNc1oc(-c2ccccc2Cl)nc1C#N` gave RAD54 branch inactive, Yeast UUG start inactive and PglD DTNB inactive.
Screening COc1cccc(CNC(=O)[C@H]2CCCN2C(=O)[C@H]2CCCN2C(=O)c2c(F)cccc2F)c1 returned RAD52 inh inactive, GSIS activator inactive and CASP6 VEID inh inactive.
For OC(CC#CCN1CCCCC1)(c1ccccc1)c1ccccc1 the results were RAD54 branch inactive, RAD52 inh inactive, GSIS activator inactive, CASP6 VEID inh inactive, Yeast UUG start inactive, PglD DTNB 27 and PglD inh SP inactive.
OC(CC#CCN1CCCC1)(c1ccccc1)c1ccccc1 was read as RAD52 inh inactive and CASP6 VEID inh inactive.
For COc1ccccc1N(O)C1CC(=O)N(c2ccc(F)cc2)C1=O (configuration not stated) the results were RAD54 branch inactive, Yeast UUG start inactive and PglD DTNB inactive.
For O=C(O)c1ccc(N/N=C/c2cccc3nccnc23)cc1 the results were RAD54 branch inactive, RAD52 inh inactive, GSIS activator inactive, CASP6 VEID inh inactive, Yeast UUG start inactive and PglD DTNB inactive.
Screening N#C[C@H]1[C@@H](c2ccccc2-c2ccccc2F)[C@H](CO)N1C(=O)Cc1ccccc1 returned RAD52 inh inactive and GSIS activator inactive.
Cc1nnc(NC(=O)c2ccc(-c3cccc(C(F)(F)F)c3)o2)s1 was read as RAD54 branch inactive, Yeast UUG start inactive and PglD DTNB inactive.
COc1cnc(-c2cccc(C(F)(F)F)c2)c(NC(=O)c2cc3ccccc3s2)n1 was read as RAD54 branch inactive, RAD52 inh inactive, GSIS activator inactive, CASP6 VEID inh inactive, Yeast UUG start inactive, PglD DTNB 30 and PglD inh SP inactive.
`CC(=O)c1ccc(N2CCN(CCC#N)CC2)c(F)c1` gave RAD54 branch inactive, Yeast UUG start inactive, PglD DTNB 26 and PglD inh SP inactive.
For CCCC(=O)c1cc(F)c(N2CCN(CCC#N)CC2)cc1C the results were RAD54 branch inactive, Yeast UUG start inactive and PglD DTNB inactive.
For C/C=C/C=C/C(=O)N1CC[C@]23c4ccccc4N[C@H]4N(C)c5cccc6c5[C@]42CCN([C@H]6C2OC2(C)C)[C@H]13 (some centres not stated) the results were RAD54 branch inactive, RAD52 inh inactive, CASP6 VEID inh inactive, Yeast UUG start inactive and PglD DTNB inactive.
`COc1ccc(S(=O)(=O)N2CCN(C(=O)C3CC3)CC2)cc1Br` gave RAD54 branch inactive, RAD52 inh inactive, GSIS activator inactive, CASP6 VEID inh inactive, Yeast UUG start inactive, PglD DTNB 42 and PglD inh SP inactive.
Cc1ccc(S(=O)(=O)N(C)C)cc1NC(=O)CSc1nnnn1-c1ccc(O)cc1 was read as RAD54 branch inactive, RAD52 inh inactive, GSIS activator inactive, CASP6 VEID inh inactive, Yeast UUG start inactive, PglD DTNB 28 and PglD inh SP inactive.
For CN(C)S(=O)(=O)c1ccc(Cl)c(NC(=O)CSc2nnnn2-c2ccc(O)cc2)c1 the results were RAD52 inh inactive, GSIS activator inactive and CASP6 VEID inh inactive.
`FC(F)(F)c1cnc(-c2cnc3c(-c4ccc(Cl)cc4)cnn3c2)c(Cl)c1` gave RAD54 branch inactive, GSIS activator inactive, Yeast UUG start inactive and PglD DTNB inactive.
`N#Cc1cnn2cc(-c3ncc(C(F)(F)F)cc3Cl)cnc12` gave RAD54 branch inactive, Yeast UUG start inactive, PglD DTNB 47 and PglD inh SP inactive.
CN(C)c1ccc(N=Nc2ccc(S(=O)(=O)O)cc2)c2ccccc12 was read as RAD54 branch inactive, GSIS activator inactive, Yeast UUG start inactive and PglD DTNB inactive.
Screening CCCC(=O)Nc1ccc2c(c1)OC[C@H](C)NC[C@@H](C)[C@H](OC)CN(C)C2=O returned RAD54 branch inactive, RAD52 inh inactive, GSIS activator inactive, CASP6 VEID inh inactive and PglD DTNB inactive.
`COc1ccc(-c2n[nH]c(=S)n2N)c(OC)c1` gave RAD54 branch inactive, RAD52 inh inactive, GSIS activator inactive, CASP6 VEID inh inactive, Yeast UUG start inactive, PglD DTNB 21 and PglD inh SP inactive.
